The values that follow are results of earlier work, collected in US11324732B2, “Methods for the treatment of dyskinesia in cerebral palsy” (AUSPEX PHARMACEUTICALS, INC., priority 2018, dated 2022).

Protein sequences, listed by entry. Tags and fused reporters are not part of them.
UniProt Q05940, whole entry, species assumed: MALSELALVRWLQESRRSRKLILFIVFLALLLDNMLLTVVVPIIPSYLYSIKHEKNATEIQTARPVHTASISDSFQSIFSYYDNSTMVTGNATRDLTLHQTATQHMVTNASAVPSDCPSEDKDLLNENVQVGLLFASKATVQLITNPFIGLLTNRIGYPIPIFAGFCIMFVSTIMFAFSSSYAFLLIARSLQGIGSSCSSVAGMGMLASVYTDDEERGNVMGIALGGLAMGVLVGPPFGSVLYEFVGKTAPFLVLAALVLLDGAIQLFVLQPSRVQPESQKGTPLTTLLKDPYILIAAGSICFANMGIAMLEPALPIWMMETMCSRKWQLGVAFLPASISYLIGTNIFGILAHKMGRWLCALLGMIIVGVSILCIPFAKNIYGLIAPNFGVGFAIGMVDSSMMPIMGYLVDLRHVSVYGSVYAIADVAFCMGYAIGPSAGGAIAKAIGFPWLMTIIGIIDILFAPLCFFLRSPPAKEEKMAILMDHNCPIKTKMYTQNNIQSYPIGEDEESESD

The target in this series is VMAT2 (Homo sapiens, UniProt Q05940). The conditions noted are these: active metabolites formed from deutetrabenazine; read-out: inhibition constant, VMAT2 binding; cited from earlier work.

As to beta-dihydrotetrabenazine [β-HTBZ], the Ki was 22 nM.

With alpha-dihydrotetrabenazine [α-HTBZ], the Ki is 3.8 nM.
